Experiments:
[1] = target: T1, RecQ-like DNA helicase BLM (Homo sapiens, UniProt P54132); assay: Inhibition of 5'-biotin labeled duplex forked-DNA binding to BLM (unknown origin) assessed as increase in unbound DNA levels after 1 hr by ELISA
Summary of the method: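 Biotinylated forked DNA (50 nM) immobilised on streptavidin plates overnight at 4 °C. BLM or mutant (100 nM final) premixed with serially halved ligand in 3% BSA blocking buffer, ≤1% DMSO, 1 h on ice. Applied to the blocked plate for 1 h at 37 °C. Bound BLM detected with anti-BLM and HRP secondary, TMB, A450; Hill fit.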

The chains behind the UniProt entries cited, without tags or fusion partners. Where a name states a change or a piece, a line headed by the entry shows the natural chain unless it says otherwise.
UniProt P54132: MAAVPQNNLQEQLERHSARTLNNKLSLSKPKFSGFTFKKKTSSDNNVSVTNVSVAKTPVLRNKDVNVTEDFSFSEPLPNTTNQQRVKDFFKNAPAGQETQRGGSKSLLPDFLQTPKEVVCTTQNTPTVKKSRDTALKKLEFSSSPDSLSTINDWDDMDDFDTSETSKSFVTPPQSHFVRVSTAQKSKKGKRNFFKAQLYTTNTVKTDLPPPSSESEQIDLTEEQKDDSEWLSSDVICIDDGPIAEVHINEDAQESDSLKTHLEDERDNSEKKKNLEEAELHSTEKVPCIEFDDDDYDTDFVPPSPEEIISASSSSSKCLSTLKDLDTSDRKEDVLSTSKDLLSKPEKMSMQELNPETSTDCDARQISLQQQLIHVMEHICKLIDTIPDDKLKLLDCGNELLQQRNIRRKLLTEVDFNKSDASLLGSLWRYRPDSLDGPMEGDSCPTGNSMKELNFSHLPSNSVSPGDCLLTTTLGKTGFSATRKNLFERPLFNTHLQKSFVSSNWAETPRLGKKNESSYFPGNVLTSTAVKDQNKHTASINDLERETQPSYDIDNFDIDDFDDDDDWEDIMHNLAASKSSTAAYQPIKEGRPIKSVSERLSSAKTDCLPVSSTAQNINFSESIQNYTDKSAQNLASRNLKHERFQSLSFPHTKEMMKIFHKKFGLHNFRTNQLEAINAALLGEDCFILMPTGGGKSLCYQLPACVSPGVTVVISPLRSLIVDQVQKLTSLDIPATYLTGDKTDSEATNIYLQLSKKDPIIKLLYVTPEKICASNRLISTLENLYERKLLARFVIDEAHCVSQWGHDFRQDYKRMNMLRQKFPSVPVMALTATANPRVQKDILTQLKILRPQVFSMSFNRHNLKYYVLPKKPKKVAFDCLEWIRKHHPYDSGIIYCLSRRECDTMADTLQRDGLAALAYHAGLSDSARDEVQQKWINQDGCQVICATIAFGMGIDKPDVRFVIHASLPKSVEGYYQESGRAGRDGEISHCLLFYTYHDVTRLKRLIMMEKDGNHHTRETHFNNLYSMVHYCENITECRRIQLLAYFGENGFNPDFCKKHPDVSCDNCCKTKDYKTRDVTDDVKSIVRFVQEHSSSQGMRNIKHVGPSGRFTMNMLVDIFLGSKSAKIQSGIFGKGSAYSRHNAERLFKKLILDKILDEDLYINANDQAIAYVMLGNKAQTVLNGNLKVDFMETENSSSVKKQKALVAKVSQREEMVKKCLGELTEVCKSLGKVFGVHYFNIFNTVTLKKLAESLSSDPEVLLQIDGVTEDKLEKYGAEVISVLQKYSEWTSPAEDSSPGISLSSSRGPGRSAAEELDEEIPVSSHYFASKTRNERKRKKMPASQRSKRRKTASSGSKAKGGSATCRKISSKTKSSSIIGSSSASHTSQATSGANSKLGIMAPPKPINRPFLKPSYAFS

[2] = target: T1, RecQ-like DNA helicase BLM; assay: Inhibition of His-tagged BLM (unknown origin) expressed in Escherichia coli BL21 (DE3) assessed as reduction in BLM helicase unwinding activity using 5'-biotin labeled forked-DNA as substrate after 1 hr by PAGE analysis
Summary of the method: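 BLM642-1296 (His-tagged, E. coli BL21(DE3)) preincubated with ligand (1.0, 10, 50 μM; ≤1% DMSO) for 1 h at 4 °C. Reaction: 8 nM annealed 5′-biotin duplex forked DNA, 32 nM BLM, 2 mM ATP, 0.1% BSA, 1 h. Run on 20% native PAGE at 4 °C, blotted, detected by chemiluminescence; ssDNA band quantified; IC50 by non-linear regression.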

O=C(Nc1ccc(F)c(C(F)(F)F)c1)Nc1nnc(-c2ccncc2)s1
IC50 [1]: 34.8 µM | IC50 [2]: 2.15 µM

Source: ChEMBL document CHEMBL4316604, “Discovery of Isaindigotone Derivatives as Novel Bloom's Syndrome Protein (BLM) Helicase Inhibitors That Disrupt the BLM/DNA Interactions and Regulate the Homologous Recombination Repair” (J Med Chem, 2019)
